Experimental data: paper PMC5858560 (2011)

Protein sequences, listed by entry. Tags and fused reporters are not part of them. Lines headed by an entry give the natural chain unless they say otherwise; changes in a name come on top.
UniProt Q12809: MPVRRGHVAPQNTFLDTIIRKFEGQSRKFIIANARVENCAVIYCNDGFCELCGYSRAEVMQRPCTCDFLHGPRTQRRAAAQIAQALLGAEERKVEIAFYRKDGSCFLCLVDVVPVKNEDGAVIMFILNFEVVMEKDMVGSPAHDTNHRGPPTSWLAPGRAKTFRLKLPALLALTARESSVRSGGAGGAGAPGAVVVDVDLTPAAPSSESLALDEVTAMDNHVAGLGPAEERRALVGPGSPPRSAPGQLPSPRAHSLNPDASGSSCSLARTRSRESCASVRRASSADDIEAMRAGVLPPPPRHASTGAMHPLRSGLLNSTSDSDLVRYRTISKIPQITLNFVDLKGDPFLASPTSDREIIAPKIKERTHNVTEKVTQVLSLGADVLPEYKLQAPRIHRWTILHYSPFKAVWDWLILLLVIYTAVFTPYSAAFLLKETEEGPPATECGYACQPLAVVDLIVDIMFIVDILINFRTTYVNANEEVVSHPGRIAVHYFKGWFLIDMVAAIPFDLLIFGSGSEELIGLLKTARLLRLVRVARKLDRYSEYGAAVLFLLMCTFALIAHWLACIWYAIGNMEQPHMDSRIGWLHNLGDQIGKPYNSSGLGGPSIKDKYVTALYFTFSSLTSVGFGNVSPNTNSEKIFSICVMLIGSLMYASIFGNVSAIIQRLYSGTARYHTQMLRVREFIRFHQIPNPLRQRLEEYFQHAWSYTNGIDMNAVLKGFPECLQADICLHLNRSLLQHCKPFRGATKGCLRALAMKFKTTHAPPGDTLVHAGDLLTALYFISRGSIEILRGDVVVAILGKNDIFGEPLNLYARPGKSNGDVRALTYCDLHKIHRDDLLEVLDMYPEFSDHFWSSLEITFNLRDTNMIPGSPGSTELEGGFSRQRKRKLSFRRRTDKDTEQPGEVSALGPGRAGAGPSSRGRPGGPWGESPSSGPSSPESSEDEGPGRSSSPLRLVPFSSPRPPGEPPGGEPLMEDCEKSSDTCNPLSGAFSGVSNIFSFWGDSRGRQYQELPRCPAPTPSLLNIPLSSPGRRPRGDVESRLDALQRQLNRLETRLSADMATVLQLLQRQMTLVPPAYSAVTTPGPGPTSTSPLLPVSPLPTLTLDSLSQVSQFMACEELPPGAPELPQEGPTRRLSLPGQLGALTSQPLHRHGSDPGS

Molecular target: hERG channel (Homo sapiens, UniProt Q12809)
Test: PatchXpress hERG channel assay in CHO-hERG cells
Assay type: cell-based
Settings: read-out: IC50 of hERG inhibition

Structure (SMILES): COCCNCCCn1c(C(=O)CF)c(-c2ccc(C)cc2)c2c(N)ncnc21 [RSK FMK-MEA, fluoromethylketone methoxyethylamine]
- IC50: 2.2 µM
